{"source": "patent US20080280851A1", "about": "(Clavis Pharma AS, priority 2005, published 2008)", "key": {"[1]": {"test_system": "Colon 6044 (human colon carcinoma)", "experiment": "Antitumour activity in Co6044 after oral administration (Table 3)", "conditions": "for Optimum T/C (on day): Q3 × 5"}, "[2]": {"test_system": "Colon 6044 (human colon carcinoma)", "conditions": "mouse, in vivo"}}, "data": [{"smiles": "Nc1ccn([C@@H]2O[C@H](CO)[C@@H](O)C2(F)F)c(=O)n1", "note": "[Gemcitabine, 2′,2′-difluorodeoxycytidine, reference compound]", "values": [{"measurement": "Optimum T/C (on day)", "setting": "[1]; 120 mg/kg", "value": "Toxic"}, {"measurement": "Toxic deaths (d)", "setting": "[1]; 120 mg/kg, Q3 × 5, deaths on days 11-16", "value": "7/8 (11-16)"}, {"measurement": "Optimum T/C (on day)", "setting": "[1]; 180 mg/kg", "value": "Toxic"}, {"measurement": "Toxic deaths (d)", "setting": "[1]; 180 mg/kg, Q3 × 5, deaths on days 11-16", "value": "7/8 (11-16)"}, {"measurement": "Optimum T/C (on day)", "setting": "[1]; 240 mg/kg", "value": "Toxic"}, {"measurement": "Toxic deaths (d)", "setting": "[1]; 240 mg/kg, Q3 × 5, deaths on days 11-15", "value": "8/8 (11-15)"}, {"measurement": "toxicity after oral administration compared to intraperitoneal (parenteral) administration", "setting": "[2]", "value": "largely increased"}]}]}
